Antibody variant affinities, Ab-14 heavy chain, assay B

Source: Li et al. 2023 (doi:10.1038/s41467-023-39022-2), MIT Lincoln Laboratory and A-Alpha Bio; data file from the FLAb repository.

Target: peptide PDVDLGDISGINAS, taken from heptad repeat 2 (HR2) of SARS-CoV-2 spike.

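The starting antibody came from a phage panning campaign against this peptide. This is the validation round: designs drawn from the data on random variants, tested in the same kind of assay. Their group label is 14H_En_Gen (En: ensemble of fine-tuned language models; Gen: genetic algorithm). In AlphaSeq, yeast of one mating type display the scFv and yeast of the other type display the target. Pairs that bind mate more often; barcode pairs of the diploids are counted by sequencing. Scores were corrected for input abundance and mapped to Kd with protein pairs of known affinity run in the same pool. Each pool was mated in six replicate cultures.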

The variants keep the light chain, the linker and the frameworks of Ab-14 (scFv order VH, a (GGGGS)3 linker, VL).
VH: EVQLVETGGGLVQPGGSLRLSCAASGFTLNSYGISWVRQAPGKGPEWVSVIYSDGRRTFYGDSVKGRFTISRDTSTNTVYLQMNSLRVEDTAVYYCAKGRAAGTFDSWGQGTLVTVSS
VL: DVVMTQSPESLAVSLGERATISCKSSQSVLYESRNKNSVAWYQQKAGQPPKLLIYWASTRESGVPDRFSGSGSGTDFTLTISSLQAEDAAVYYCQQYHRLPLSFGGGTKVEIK

The parent's heavy chain CDRs are GFTLNSYGIS, VIYSDGRRTFYGDSVK, GRAAGTFDS; each variant's own CDRs replace them letter for letter.
The read-out is the apparent dissociation constant on a log10 scale (nM): the lower, the stronger.
A mean of the replicates is given; it leaves out those without a signal.
A pair that was not seen in that replicate is written "nd"; this usually means weak binding, but a binder can also be missed.
As a blank, each scFv also met three strains without target: over all heavy chain designs, 1% of these pairings were detected, typically at 2.08 and seldom below 0.84. Also given: how often the same scFv was detected with the empty control strains.
In the paper, a design with two or fewer of six values counts as a poor binder.
The range of this assay differs from that of the first round, and the authors advise against merging the two.

The variant GFDLNEYGIS | VIYADGKRTAYADKVK | GENAGTFDV showed -0.23, -0.63, -0.23, -0.55, -0.46, -0.17 (mean -0.38; controls 0 of 18).
The variant GFDLNEYGIS | VIYADGMRTAYADSVK | GNHAGTFDV showed -0.57, -0.69, -0.50, -0.62, -0.44, -0.36 (mean -0.53; controls 0 of 18).
The variant GFDLNEYGIS | VIYADGKRTAYADKVK | GNTAGTFDV showed -0.22, -0.68, -0.54, -1.02, -0.39, -0.65 (mean -0.59; controls 0 of 18).
The variant GFDLNEYGIS | VIYADGMRTAYADKVK | GENAGTFDV showed 0.30, -0.08, -0.49, -0.22, -0.31, -0.34 (mean -0.19; controls 0 of 18).
The variant GFDLNEYGIS | VIYADGKRQAYADSVK | GNVAGTFDI showed 0.15, -0.15, -0.47, -0.41, 0.00, -0.16 (mean -0.17; controls 0 of 18).
The variant GFDLDEYGIS | VIYADGKRTAYADSVK | GENAGTFDQ showed -0.03, -0.27, -0.41, -0.27, -0.08, -0.15 (mean -0.20; controls 0 of 18).
The variant GFDLNEYGIS | VIYADGMRTAYADNVK | GNNAGTFDQ showed nd, nd, nd, -0.16, nd, nd (controls 0 of 18).
The variant GFDLNEYGIS | VIYADGMRTAYADSVK | GGTAGTFDV showed -0.31, -0.57, -0.55, -0.60, -0.41, -0.35 (mean -0.46; controls 0 of 18).
The variant GFDLNEYGIS | VIYADGMRTAYTDKVK | GNVAGTFDV showed nd, nd, nd, -0.73, nd, nd (controls 0 of 18).
The variant GFDLNEYGIS | VIYADGMRTAYTDSVK | GEVAGTFDQ showed -0.55, -0.56, -0.51, -0.98, -0.31, -0.60 (mean -0.58; controls 1 of 18).
The variant GFDLDEYGIS | VIYADGMRTAYQDSVK | GNNAGTFDV showed nd, -0.43, -1.15, -0.27, -0.73, -0.88 (mean -0.69; controls 0 of 18).
The variant GFDLNEYGIS | VIYADGVRTAYTDSVK | GTNAGTFDI showed 0.20, -0.46, -0.61, -0.56, -0.28, -0.20 (mean -0.32; controls 0 of 18).
The variant GFDLDEYGIS | VIYADGQRTVYADSVK | GENAGTFDL showed 0.54, -0.38, 0.06, 0.67, -0.13, -0.52 (mean 0.04; controls 1 of 18).
The variant GFDLNEYGIS | VIYADGRRTAYADSVK | GKNAGTFDI showed 0.20, 0.28, -0.09, 0.06, -0.24, 0.32 (mean 0.09; controls 0 of 18).
The variant GFDLNEYGIS | VIYADGQRTAYADSVK | GETAGTFDL showed 0.24, 1.21, 0.43, 0.45, 0.10, 1.06 (mean 0.58; controls 0 of 18).
The variant GFDLNEYGIS | VIYADGMRTAYIDSVK | GNQAGTFDI showed -0.36, -0.21, 0.04, -0.47, -0.53, -0.26 (mean -0.30; controls 0 of 18).
The variant GFDLNEYGIS | VIYADGMRTAYADAVK | GNVAGTFDV showed -0.38, -0.58, -0.04, -1.10, -0.19, -1.02 (mean -0.55; controls 1 of 18).
The variant GFDLNEYGIS | VIYADGMRTYYADDVK | GGNAGTFDV showed -0.82, -1.14, -0.85, -0.54, -1.04, -0.54 (mean -0.82; controls 0 of 18).
The variant GFDLDEYGIS | VIYADGMRTAYADKVK | GENAGTFDL showed -0.22, -0.44, -0.40, -0.54, -0.29, -0.14 (mean -0.34; controls 1 of 18).
The variant GFDLNEYGIS | VIYADGSRTAYADNVK | GQVAGTFDV showed 0.46, 0.65, 0.10, -0.02, 0.67, 0.32 (mean 0.36; controls 1 of 18).
The variant GFNLDEYGIS | VIYADGMRTAYADSVK | GNVAGTFDQ showed -0.53, -0.57, -0.63, -0.75, -0.63, -0.25 (mean -0.56; controls 0 of 18).
The variant GFDLNEYGIS | VIYADGVRTAYSDSVK | GNVAGTFDI showed -0.32, 0.12, -0.15, -0.62, -0.43, -0.07 (mean -0.24; controls 0 of 18).
The variant GFDLNEYGIS | VIYADGKRTAYADSVK | GQTAGTFDQ showed -0.89, -0.82, 0.22, -1.07, -0.88, nd (mean -0.69; controls 0 of 18).
The variant GFDLDEYGIS | VIYADGMRTVYADSVK | GSNAGTFDV showed -0.85, -0.48, -1.26, -0.63, -1.06, -0.85 (mean -0.85; controls 0 of 18).
The variant GFDLNEYGIS | VIYADGMRTAYADKVK | GETAGTFDL showed -0.32, 0.02, 0.51, 0.06, -0.45, 0.04 (mean -0.02; controls 0 of 18).
The variant GFDLNEYGIS | VIYADGVRTQYADSVK | GNNAGTFDV showed 0.41, 1.05, -0.42, 0.30, -0.20, -0.42 (mean 0.12; controls 0 of 18).
The variant GFDLNEYGIS | VIYADGMRTAYADKVK | GNVAGTFDM showed -0.09, -0.02, -0.56, -0.50, -0.13, -0.17 (mean -0.25; controls 0 of 18).
The variant GFDLNEYGIS | VIYADGQRTAYSDSVK | GNEAGTFDV showed -0.05, -0.24, -0.39, -0.39, -0.56, -0.09 (mean -0.29; controls 0 of 18).
The variant GFDLDEYGIS | VIYADGVRTAYVDSVK | GNVAGTFDV showed -0.66, -0.75, -0.82, -0.74, -0.73, -0.60 (mean -0.72; controls 0 of 18).
The variant GFDLNEYGIS | VIYADGMRTAYADNVK | GEQAGTFDV showed -0.11, -0.05, -0.64, -0.30, -0.03, 0.07 (mean -0.18; controls 0 of 18).
The variant GFDLDEYGIS | VIYADGKRQAYADSVK | GNVAGTFDV showed -0.41, -0.20, -0.54, -0.68, -0.66, -0.31 (mean -0.47; controls 0 of 18).
The variant GFDLDEYGIS | VIYADGKRTAYADSVK | GNEAGTFDM showed -0.18, 0.21, -0.07, -0.54, 1.30, 0.03 (mean 0.13; controls 0 of 18).
The variant GFDLNEYGIS | VIYADGSRTVYADSVK | GEVAGTFDV showed 0.28, 0.25, 0.11, -0.14, 0.37, 0.19 (mean 0.18; controls 0 of 18).
The variant GFDLNEYGIS | VIYADGRRTVYADSVK | GNVAGTFDI showed -0.50, -0.60, -0.48, -0.06, -0.45, -0.59 (mean -0.44; controls 0 of 18).
The variant GFDLNEYGIS | VIYADGRRTAYSDNVK | GEVAGTFDV showed 0.00, 0.02, -0.59, 0.03, -0.23, -0.16 (mean -0.16; controls 0 of 18).
The variant GFDLDEYGIS | VIYADGRRTAYADSVK | GNNAGTFDQ showed -0.89, 0.02, 0.07, -0.88, -0.82, -0.32 (mean -0.47; controls 0 of 18).
The variant GFDLNEYGIS | VIYADGVRTAYADSVK | GANAGTFDV showed -0.74, -0.12, -0.59, -1.25, 0.09, -0.45 (mean -0.51; controls 0 of 18).
The variant GFDLNEYGIS | VIYADGSRTAYADSVK | GEQAGTFDV showed -1.01, -0.81, -1.19, -1.16, -0.77, -0.66 (mean -0.93; controls 0 of 18).
The variant GFDLEEYGIS | VIYADGRRTAYADSVK | GNQAGTFDV showed 0.00, -0.24, 0.32, 0.49, -0.18, 0.48 (mean 0.14; controls 0 of 18).
The variant GFDLNEYGIS | VIYADGQRTAYADDVK | GNNAGTFDL showed -0.39, -0.56, -0.56, -0.45, -0.33, -0.41 (mean -0.45; controls 1 of 18).
The variant GFDLNEYGIS | VIYADGMRTAYTDSVK | GNLAGTFDV showed 0.37, nd, 0.17, 0.35, 0.26, -0.13 (mean 0.20; controls 0 of 18).
The variant GFDLNEYGIS | VIYADGMRTAYSDNVK | GNTAGTFDV showed -0.05, -0.58, -0.70, 0.06, 0.42, 0.20 (mean -0.11; controls 1 of 18).
The variant GFDLNEYGIS | VIYADGMRTAYIDSVK | GNTAGTFDI showed -0.31, -0.35, -0.57, -0.69, -0.64, -0.35 (mean -0.48; controls 1 of 18).
The variant GFDLEEYGIS | VIYADGKRTAYADSVK | GNVAGTFDV showed -0.23, -0.61, 0.59, -0.41, -0.26, -0.10 (mean -0.17; controls 0 of 18).
The variant GFDLDEYGIS | VIYADGRRTAYADSVK | GNVAGTFDQ showed -0.57, -0.59, -1.06, -1.22, -0.69, -0.40 (mean -0.75; controls 0 of 18).
The variant GFDLDEYGIS | VIYADGVRTAYTDSVK | GNVAGTFDV showed 0.47, -0.38, -0.42, -0.65, -0.03, 0.66 (mean -0.06; controls 1 of 18).
The variant GFDLNEYGIS | VIYADGQRTAYANSVK | GEVAGTFDL showed 0.02, -0.12, -0.33, -0.16, 0.11, -0.03 (mean -0.09; controls 0 of 18).
The variant GFDLNEYGIS | VIYADGMRTAYSDSVK | GNNAGTFDQ showed -1.06, -0.65, -0.92, -0.66, 0.08, 0.24 (mean -0.49; controls 0 of 18).
The variant GFDLNEYGIS | VIYADGMRSAYADSVK | GEVAGTFDV showed -0.87, 0.46, -0.15, -0.31, -0.18, -0.78 (mean -0.31; controls 1 of 18).

For reference, 7 entries of the list once more:

CDR-H1,CDR-H2,CDR-H3,"log10 Kd, replicates",mean log10 Kd (nM),empty controls
GFDLNEYGIS,VIYADGMRTAYADKVK,GNVAGTFDM,"-0.09, -0.02, -0.56, -0.50, -0.13, -0.17",-0.25,0/18
GFDLNEYGIS,VIYADGMRTAYSDNVK,GNTAGTFDV,"-0.05, -0.58, -0.70, 0.06, 0.42, 0.20",-0.11,1/18
GFDLNEYGIS,VIYADGMRTAYADAVK,GNVAGTFDV,"-0.38, -0.58, -0.04, -1.10, -0.19, -1.02",-0.55,1/18
GFDLNEYGIS,VIYADGRRTVYADSVK,GNVAGTFDI,"-0.50, -0.60, -0.48, -0.06, -0.45, -0.59",-0.44,0/18
GFDLNEYGIS,VIYADGSRTAYADSVK,GEQAGTFDV,"-1.01, -0.81, -1.19, -1.16, -0.77, -0.66",-0.93,0/18
GFDLDEYGIS,VIYADGRRTAYADSVK,GNVAGTFDQ,"-0.57, -0.59, -1.06, -1.22, -0.69, -0.40",-0.75,0/18
GFDLNEYGIS,VIYADGMRTYYADDVK,GGNAGTFDV,"-0.82, -1.14, -0.85, -0.54, -1.04, -0.54",-0.82,0/18